Assay results taken from PubChem BioAssay AID739 (SRMLSC, 2007).
Only a part is listed here, and it is no random draw. Active and inactive are the calls of the source. Cut-off read from the data, not from the text of the source: active = inhibition above about 30%; inactive = the rest.

assay: phenotypic screen on post-Golgi transport, primary screen (AID 739); settings: post-Golgi transport phenotypic cell assay; at 10 µM; stronger effect = higher value;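 note: yeast cells grown in 1536-well plates; yeast grown about 18 h at 30C before absorbance read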

| SMILES | inhibition |
| --- | --- |
| CCC(CO)(C(=O)OC1CN2CCC1CC2)c1ccccc1 (centres undefined) | inactive: 12.1% |
| CCOc1ncccc1C(=O)NCC1(N2CCOCC2)CCCCC1 | inactive: -0.31% |
| N/C(=N\O)c1c(N)no[n+]1[O-] | inactive: -14.4% |
| c1ccc(CN2CCC(Nc3ccccc3)CC2)cc1 | inactive: -0.67% |
| O=C(NCC1(N2CCOCC2)CCCCC1)c1cc(=O)[nH]c2ccccc12 | inactive: -6.51% |
| N#CC1(Nc2ccccc2)CCN(CCc2ccccc2)CC1 | inactive: 16% |
| O=C(OC1CN2CCC1CC2)C1c2ccccc2Oc2ccccc21 (centres undefined) | inactive: 3.22% |
| O=C(NCC1(N2CCOCC2)CCCCC1)c1cc2ccccc2o1 | inactive: 10.9% |
| COc1ccc(NC2CCN(CCc3ccccc3)CC2)c(OC)c1 | inactive: 11.2% |
